This assay addresses 20S proteasome (Rattus norvegicus, UniProt P28075). In words: Inhibition of chymotrypsin-like activity of 20S proteasome by DPBA (sLLVY-MCA). The class given is biochemical. Further details: The 20S proteasome was purified from rat liver as described in the applicant's previous publication; from tissue; host or cells: rat liver. The following applies: 20S proteasome from rat liver, 37° C. 30 min, read-out: IC50 for the inhibition of the chymotrypsin-like enzyme. The method, then: The 20S proteasome was purified from rat liver as described in the applicant's previous publication (1996, supra). A fluorogenic peptide sLLVY-MCA was used as a chymotrypsin substrate. DPBA of different concentrations was added into the reaction mix, and incubated at 37° C. for 30 min. The relative fluorescent intensity, which reflects the chymotrypsin-like enzymatic activity of the 20S proteasome, was measured with a fluorometer using excitation/emission wavelengths of 380 nm/440 nm.

Sequences of proteins named here, by UniProt entry; tags and fusion partners are left off. A change or cut given only in a name is not applied to a line headed by its entry.
UniProt P28075: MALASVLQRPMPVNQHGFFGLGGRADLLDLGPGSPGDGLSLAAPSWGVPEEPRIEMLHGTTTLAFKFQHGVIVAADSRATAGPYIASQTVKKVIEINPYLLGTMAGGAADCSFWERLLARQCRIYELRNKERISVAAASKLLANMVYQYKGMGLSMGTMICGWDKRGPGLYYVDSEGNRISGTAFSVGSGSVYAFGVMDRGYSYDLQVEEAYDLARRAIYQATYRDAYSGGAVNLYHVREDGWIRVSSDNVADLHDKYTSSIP

In general, IC50 refers to the concentration needed to halve the response being measured. Consider `CC(C)C[C@H](NC(=O)[C@H](Cc1ccccc1)NC(=O)c1cnccn1)B(O)O` [DPBA, Pyz-Phe-boroLeu], for which the concentration for half-maximal inhibition (IC50) was around 20 nM.

The values are drawn from patent US20020049157A1, “Use of proteasome inhibitors for treating cancer, inflammation, autoimmune disease, graft rejection and septic shock” (priority 1998, published 2002).
